Experimental data as given in PMC8905997 (Chemical Science, 2022).

Target: SARS-CoV-2 M^pro spiked into A431 cell lysate (Severe acute respiratory syndrome coronavirus 2, UniProt P0DTD1)
Format: binding

SMILES: COc1cccc2[nH]c(C(=O)N[C@@H](CC(C)C)C(=O)N[C@@H](C[C@@H]3CCNC3=O)C(=O)CO)cc12 [PF-00835231]
- effect of preincubation on the ∼34 kDa M^pro band labeled by (R,R)-22: disappeared
